Molecular target: Sodium-dependent dopamine transporter (Rattus norvegicus, UniProt P23977)
Experiment: Inhibitory activity against radioligand [3H]WIN-35428 binding at the dopamine transporter

Sequences of proteins named here, by UniProt entry; tags and fusion partners are left off.
UniProt P23977, whole entry: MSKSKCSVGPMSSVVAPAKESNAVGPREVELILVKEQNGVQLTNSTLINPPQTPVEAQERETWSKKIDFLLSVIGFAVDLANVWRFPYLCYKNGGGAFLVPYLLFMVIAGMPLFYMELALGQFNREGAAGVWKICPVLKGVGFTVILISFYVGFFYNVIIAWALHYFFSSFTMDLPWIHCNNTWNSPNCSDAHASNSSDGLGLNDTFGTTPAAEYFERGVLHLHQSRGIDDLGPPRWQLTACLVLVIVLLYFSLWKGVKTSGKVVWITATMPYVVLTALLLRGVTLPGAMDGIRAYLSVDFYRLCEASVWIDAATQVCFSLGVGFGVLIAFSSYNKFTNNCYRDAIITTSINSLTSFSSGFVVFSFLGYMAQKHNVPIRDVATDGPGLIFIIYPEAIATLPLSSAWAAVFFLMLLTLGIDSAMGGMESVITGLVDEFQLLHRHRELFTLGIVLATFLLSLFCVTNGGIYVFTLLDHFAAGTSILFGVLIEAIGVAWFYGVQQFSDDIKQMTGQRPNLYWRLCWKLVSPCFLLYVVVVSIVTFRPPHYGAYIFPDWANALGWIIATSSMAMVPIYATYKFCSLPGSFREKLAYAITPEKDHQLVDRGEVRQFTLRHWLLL

CN1[C@@H]2CC[C@H]1C(c1ccccc1)C(c1ccccc1)C2 (mixture of isomers; form 2)
IC50: 1270 nM

From ChEMBL document CHEMBL1130729, “Synthesis and transporter binding properties of (R)-2 beta, 3 beta- and (R)-2 alpha, 3 alpha-diaryltropanes” (Bioorg Med Chem Lett, 1998)
